What was measured:
Assay type in all cases: cell-based
PC-3 = assay: Inhibition of methionine aminopeptidase in human PC3 cells assessed as increase in ratio of unprocessed 14-3-3gamma to total 14-3-3gamma at 0.1 uM after 24 hrs by immunoblotting analysis relative to DMSO-treated control
MCF7 = assay: Inhibition of methionine aminopeptidase in human MCF7 cells assessed as increase in ratio of unprocessed 14-3-3gamma to total 14-3-3gamma at 0.1 uM after 24 hrs by immunoblotting analysis relative to DMSO-treated control
E6-1 = assay: Inhibition of methionine aminopeptidase in human Jurkat E6-1 cells assessed as increase in ratio of unprocessed 14-3-3gamma to total 14-3-3gamma at 0.1 uM after 24 hrs by immunoblotting analysis relative to DMSO-treated control
HeLa = assay: Inhibition of methionine aminopeptidase in human HeLa cells assessed as increase in ratio of unprocessed 14-3-3gamma to total 14-3-3gamma at 0.1 uM after 24 hrs by immunoblotting analysis relative to DMSO-treated control

CO[C@@H]1[C@H](OC(=O)NC(=O)CCl)CC[C@]2(CO2)[C@H]1[C@@]1(C)O[C@@H]1CC=C(C)C showed a Ratio (PC-3) of 1.1, a Ratio (MCF7) of 1.3 and a Ratio (E6-1) of 1. It also gave a Ratio (HeLa) of 1.6.

From ChEMBL document CHEMBL2375230 (J Med Chem, 2013)
